# Membrane permeability of cyclic peptides

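The data file gives no further conditions (lipid, pH, time, direction or concentration), and values from different papers need not be comparable. Other peptides of the study may be missing here. Entries at the database's floor value (log10 P of -10) are not listed.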

PAMPA measures passive passage through an artificial lipid membrane. Values are log10 P with P in cm/s, so -5 is more permeable than -7.

| PAMPA (log10 cm/s) | compound |
|---|---|
| -5.40 | CC(=O)N1CCC[C@H]1C(=O)N[C@@H]1C(=O)N(C)[C@H](CC(C)C)C(=O)N(C)[C@@H](CC(C)C)C(=O)N[C@@H](CC(C)C)C(=O)N(C)[C@@H](CC(C)C)C(=O)N(C)[C@@H](C)C(=O)N[C@@H](CC(C)C)C(=O)N2CCC[C@@H]2C(=O)O[C@@H]1C |
| -5.42 | CCC[C@@H]1NC(=O)[C@@H](CC(C)C)NC(=O)[C@@H](NC(=O)[C@@H](CC(C)C)N(C)C(=O)[C@@H]2CCCN2C(C)=O)[C@@H](C)OC(=O)[C@@H]2CCCN2C(=O)[C@H](CC(C)C)NC(=O)[C@@H](C)N(C)C(=O)[C@@H](Cc2ccc(F)c(F)c2)NC1=O |
| -5.75 | CCC[C@H]1NC(=O)[C@@H](NC(=O)[C@@H](CC(C)C)N(C)C(=O)[C@@H]2CCCN2C(C)=O)[C@@H](C)OC(=O)[C@@H]2CCCN2C(=O)[C@H](CC(C)C)NC(=O)[C@@H](C)N(C)C(=O)[C@@H](Cc2ccc(F)cc2)NC(=O)[C@H](Cc2ccc(OC)cc2)NC1=O |
| -6.85 | CC[C@@H]1NC(=O)[C@@H](Cc2ccccc2)NC(=O)[C@@H](NC(=O)[C@@H](CC(C)C)N(C)C(=O)[C@@H]2CCCN2C(C)=O)[C@@H](C)OC(=O)[C@@H]2CCCN2C(=O)[C@H](CC(C)C)NC(=O)[C@@H](C)N(C)C(=O)[C@@H](CC)NC1=O |
| -5.82 | CC(=O)N1CCC[C@H]1C(=O)N(C)[C@H](CC(C)C)C(=O)N[C@@H]1C(=O)N[C@H](Cc2ccc(F)cc2)C(=O)N[C@@H](Cc2ccc(F)cc2)C(=O)N[C@H](Cc2ccccc2)C(=O)N(C)[C@H](C)C(=O)N[C@@H](CC(C)C)C(=O)N2CCC[C@H]2C(=O)O[C@@H]1C |
| -5.76 | COc1ccc(C[C@@H]2NC(=O)[C@@H](CC(C)C)NC(=O)[C@@H](NC(=O)[C@@H](CC(C)C)N(C)C(=O)[C@@H]3CCCN3C(C)=O)[C@@H](C)OC(=O)[C@@H]3CCCN3C(=O)[C@H](CC(C)C)NC(=O)[C@@H](C)N(C)C(=O)[C@@H](Cc3ccc(F)c(F)c3)NC2=O)cc1 |
| -5.94 | CC(=O)N[C@@H]1C(=O)N2CCC[C@H]2C(=O)N(C)[C@H](CC(C)C)C(=O)N(C)[C@H](CC(C)C)C(=O)N(C)[C@@H](CC(C)C)C(=O)N(C)[C@@H](CC(C)C)C(=O)N[C@@H](C)C(=O)N[C@@H](CC(C)C)C(=O)N2CCC[C@@H]2C(=O)O[C@@H]1C |
| -5.78 | CC(=O)N1CCC[C@H]1C(=O)N(C)[C@H](CC(C)C)C(=O)N[C@@H]1C(=O)N[C@H](Cc2ccccc2)C(=O)N[C@@H](Cc2ccccc2)C(=O)N[C@H](Cc2ccc(F)c(F)c2)C(=O)N(C)[C@H](C)C(=O)N[C@@H](CC(C)C)C(=O)N2CCC[C@H]2C(=O)O[C@@H]1C |
| -5.96 | CC[C@H]1NC(=O)[C@@H](NC(=O)[C@@H](CC(C)C)N(C)C(=O)[C@@H]2CCCN2C(C)=O)[C@@H](C)OC(=O)[C@@H]2CCCN2C(=O)[C@H](CC(C)C)NC(=O)[C@@H](C)N(C)C(=O)[C@@H](CC2CCCCC2)NC(=O)[C@H](CCc2ccccc2)NC1=O |
| -5.70 | CC(=O)N1CCC[C@H]1C(=O)N[C@@H]1C(=O)N(C)[C@H](CC(C)C)C(=O)N[C@@H](CC(C)C)C(=O)N(C)[C@@H](CC(C)C)C(=O)N(C)[C@H](CC(C)C)C(=O)N(C)[C@@H](C)C(=O)N[C@@H](CC(C)C)C(=O)N2CCC[C@@H]2C(=O)O[C@@H]1C |
| -5.89 | CC(=O)N1CCC[C@H]1C(=O)N(C)[C@H](CC(C)C)C(=O)N[C@@H]1C(=O)N[C@H](CC(C)C)C(=O)N[C@@H](CC(C)C)C(=O)N[C@H](Cc2cccc3ccccc23)C(=O)N(C)[C@H](C)C(=O)N[C@@H](CC(C)C)C(=O)N2CCC[C@H]2C(=O)O[C@@H]1C |
| -5.62 | CCC[C@@H]1NC(=O)[C@@H](CC)NC(=O)[C@@H](NC(=O)[C@@H](CC(C)C)N(C)C(=O)[C@@H]2CCCN2C(C)=O)[C@@H](C)OC(=O)[C@@H]2CCCN2C(=O)[C@H](CC(C)C)NC(=O)[C@@H](C)N(C)C(=O)[C@@H](Cc2cccc3ccccc23)NC1=O |
| -5.93 | CC[C@@H]1NC(=O)[C@@H](CC)NC(=O)[C@@H](NC(=O)[C@@H](CC(C)C)N(C)C(=O)[C@@H]2CCCN2C(C)=O)[C@@H](C)OC(=O)[C@@H]2CCCN2C(=O)[C@H](CC(C)C)NC(=O)[C@@H](C)N(C)C(=O)[C@@H](Cc2cccc3ccccc23)NC1=O |
| -6.16 | CCC[C@H]1NC(=O)[C@@H](NC(=O)[C@@H](CC(C)C)N(C)C(=O)[C@@H]2CCCN2C(C)=O)[C@@H](C)OC(=O)[C@@H]2CCCN2C(=O)[C@H](CC(C)C)NC(=O)[C@@H](C)N(C)C(=O)[C@@H](Cc2cccc3ccccc23)NC(=O)[C@H](CCc2ccccc2)NC1=O |
| -6.28 | CC(=O)N1CCC[C@H]1C(=O)N[C@@H]1C(=O)N[C@H](CC(C)C)C(=O)N(C)[C@H](CC(C)C)C(=O)N[C@@H](CC(C)C)C(=O)N[C@@H](CC(C)C)C(=O)N[C@H](C)C(=O)N[C@@H](CC(C)C)C(=O)N2CCC[C@@H]2C(=O)O[C@@H]1C |
| -5.51 | CC(=O)N1CCC[C@H]1C(=O)N[C@@H]1C(=O)N(C)[C@H](CC(C)C)C(=O)N(C)[C@@H](CC(C)C)C(=O)N(C)[C@H](CC(C)C)C(=O)N[C@H](CC(C)C)C(=O)N[C@H](C)C(=O)N[C@@H](CC(C)C)C(=O)N2CCC[C@@H]2C(=O)O[C@@H]1C |
| -6.42 | CC(=O)N[C@@H]1C(=O)N2CCC[C@H]2C(=O)N(C)[C@H](CC(C)C)C(=O)N[C@H](CC(C)C)C(=O)N(C)[C@@H](CC(C)C)C(=O)N(C)[C@H](CC(C)C)C(=O)N[C@@H](C)C(=O)N[C@@H](CC(C)C)C(=O)N2CCC[C@@H]2C(=O)O[C@@H]1C |
| -6.00 | CC(=O)N1CCC[C@H]1C(=O)N(C)[C@H](CC(C)C)C(=O)N[C@@H]1C(=O)N[C@H](Cc2ccc(F)cc2)C(=O)N[C@@H](CCc2ccccc2)C(=O)N[C@H](Cc2ccccc2)C(=O)N(C)[C@H](C)C(=O)N[C@@H](CC(C)C)C(=O)N2CCC[C@H]2C(=O)O[C@@H]1C |
| -6.85 | COc1ccc(C[C@@H]2NC(=O)[C@@H](Cc3ccc(F)cc3)NC(=O)[C@@H](NC(=O)[C@@H](CC(C)C)N(C)C(=O)[C@@H]3CCCN3C(C)=O)[C@@H](C)OC(=O)[C@@H]3CCCN3C(=O)[C@H](CC(C)C)NC(=O)[C@@H](C)N(C)C(=O)[C@@H](Cc3cccc4ccccc34)NC2=O)cc1 |
| -6.85 | CC[C@H]1NC(=O)[C@H](Cc2ccc(OC)cc2)NC(=O)[C@@H](Cc2ccc(F)cc2)NC(=O)[C@@H](NC(=O)[C@@H](CC(C)C)N(C)C(=O)[C@@H]2CCCN2C(C)=O)[C@@H](C)OC(=O)[C@@H]2CCCN2C(=O)[C@H](CC(C)C)NC(=O)[C@@H](C)N(C)C1=O |
| -5.40 | CC(=O)N1CCC[C@H]1C(=O)N[C@@H]1C(=O)N(C)[C@H](CC(C)C)C(=O)N[C@@H](CC(C)C)C(=O)N(C)[C@H](CC(C)C)C(=O)N(C)[C@@H](CC(C)C)C(=O)N(C)[C@H](C)C(=O)N[C@@H](CC(C)C)C(=O)N2CCC[C@@H]2C(=O)O[C@@H]1C |

Again, the 3 entries with the lowest PAMPA:

| compound | PAMPA (log10 cm/s) |
|---|---|
| CC[C@@H]1NC(=O)[C@@H](Cc2ccccc2)NC(=O)[C@@H](NC(=O)[C@@H](CC(C)C)N(C)C(=O)[C@@H]2CCCN2C(C)=O)[C@@H](C)OC(=O)[C@@H]2CCCN2C(=O)[C@H](CC(C)C)NC(=O)[C@@H](C)N(C)C(=O)[C@@H](CC)NC1=O | -6.85 |
| COc1ccc(C[C@@H]2NC(=O)[C@@H](Cc3ccc(F)cc3)NC(=O)[C@@H](NC(=O)[C@@H](CC(C)C)N(C)C(=O)[C@@H]3CCCN3C(C)=O)[C@@H](C)OC(=O)[C@@H]3CCCN3C(=O)[C@H](CC(C)C)NC(=O)[C@@H](C)N(C)C(=O)[C@@H](Cc3cccc4ccccc34)NC2=O)cc1 | -6.85 |
| CC[C@H]1NC(=O)[C@H](Cc2ccc(OC)cc2)NC(=O)[C@@H](Cc2ccc(F)cc2)NC(=O)[C@@H](NC(=O)[C@@H](CC(C)C)N(C)C(=O)[C@@H]2CCCN2C(C)=O)[C@@H](C)OC(=O)[C@@H]2CCCN2C(=O)[C@H](CC(C)C)NC(=O)[C@@H](C)N(C)C1=O | -6.85 |

Source: CycPeptMPDB (Li et al. 2023), which took these values from Kelly et al. 2021, doi:10.1021/jacs.0c06115.